From US20060216330A1, “Peptides having an ace inhibiting effect” (priority 2003, published 2006)

Protein sequences, listed by entry. Tags and fused reporters are not part of them. Residues count along the entry.
UniProt P12821, 30-1306, species assumed: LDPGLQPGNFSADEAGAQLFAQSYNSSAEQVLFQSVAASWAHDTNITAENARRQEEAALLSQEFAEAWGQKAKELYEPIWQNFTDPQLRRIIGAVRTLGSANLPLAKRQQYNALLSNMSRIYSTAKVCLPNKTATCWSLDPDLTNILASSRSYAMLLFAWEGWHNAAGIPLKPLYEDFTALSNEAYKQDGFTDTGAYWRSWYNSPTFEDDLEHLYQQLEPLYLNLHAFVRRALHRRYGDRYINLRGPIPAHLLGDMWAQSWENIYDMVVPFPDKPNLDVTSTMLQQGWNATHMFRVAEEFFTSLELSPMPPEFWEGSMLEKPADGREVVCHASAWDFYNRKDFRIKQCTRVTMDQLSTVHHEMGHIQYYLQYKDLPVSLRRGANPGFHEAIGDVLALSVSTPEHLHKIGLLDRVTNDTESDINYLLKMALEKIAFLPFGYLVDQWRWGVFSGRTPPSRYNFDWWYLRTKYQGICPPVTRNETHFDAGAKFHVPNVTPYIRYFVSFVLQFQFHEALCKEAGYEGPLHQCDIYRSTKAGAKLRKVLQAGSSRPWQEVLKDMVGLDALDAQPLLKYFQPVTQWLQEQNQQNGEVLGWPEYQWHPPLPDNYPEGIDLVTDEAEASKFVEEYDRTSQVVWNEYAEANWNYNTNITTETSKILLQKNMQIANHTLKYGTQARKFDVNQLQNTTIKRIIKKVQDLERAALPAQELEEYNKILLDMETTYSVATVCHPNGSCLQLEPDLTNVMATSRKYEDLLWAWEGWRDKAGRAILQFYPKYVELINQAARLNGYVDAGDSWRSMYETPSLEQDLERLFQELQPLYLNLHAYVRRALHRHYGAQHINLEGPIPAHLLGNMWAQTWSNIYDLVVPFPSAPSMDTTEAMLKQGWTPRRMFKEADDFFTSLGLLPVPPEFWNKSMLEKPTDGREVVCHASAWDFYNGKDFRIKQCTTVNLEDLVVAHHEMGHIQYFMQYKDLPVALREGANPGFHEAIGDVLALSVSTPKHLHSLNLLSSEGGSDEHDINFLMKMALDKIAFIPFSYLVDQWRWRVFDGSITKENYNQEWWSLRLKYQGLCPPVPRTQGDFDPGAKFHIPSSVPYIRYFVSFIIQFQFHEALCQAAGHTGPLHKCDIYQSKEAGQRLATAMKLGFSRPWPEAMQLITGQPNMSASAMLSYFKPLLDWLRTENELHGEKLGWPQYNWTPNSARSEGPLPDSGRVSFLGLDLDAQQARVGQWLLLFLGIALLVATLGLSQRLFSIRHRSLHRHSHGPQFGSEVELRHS

Legend:
[1] = In vitro gastro-intestinal digestion of Biozate (artificial human gastro intestinal tract); settings: for Concentration, Original solution: Biozate original solution before digestion; for Concentration, t = 0 min: simulated gastric fluid pH 3.5, 37° C.; for Concentration, t = 60 min: end of gastric phase; for Concentration, t = 65 min: simulated intestinal fluid (pancreatin, pH 6.8); for Concentration, t = 75 min / Concentration, t = 90 min / Concentration, t = 120 min / Concentration, t = 150 min / Concentration, t = 180 min: simulated intestinal fluid
ACE = ACE (Homo sapiens, UniProt P12821); experiment: ACE activity measurement with fluorogenic substrate Abz-FRK(Dnp)P-OH

CC[C@H](C)[C@H](N)C(=O)N1CCC[C@H]1C(=O)N[C@@H](C)C(=O)N[C@H](C(=O)N[C@@H](Cc1ccccc1)C(=O)O)C(C)C [IPAVF]
Concentration, Original solution [1]: 23 µg/mL | Concentration, t = 0 min [1]: 24 µg/mL | Concentration, t = 60 min [1]: 30 µg/mL | Concentration, t = 65 min [1]: 6 µg/mL | Concentration, t = 75 min [1]: 0 µg/mL | Concentration, t = 90 min [1]: 0 µg/mL | Concentration, t = 120 min [1]: 0 µg/mL | Concentration, t = 150 min [1]: 0 µg/mL | Concentration, t = 180 min [1]: 0 µg/mL | IC50 (ACE): 300 µM

CC[C@H](C)[C@H](N)C(=O)N[C@H](C(=O)N[C@@H](C)C(=O)N[C@@H](CCC(=O)O)C(=O)N[C@@H](CCCCN)C(=O)O)[C@@H](C)CC [IIAEK]
Concentration, Original solution [1]: 101 µg/mL | resistance against GIT digestion ([1]; artificial gastro-intestinal tract): high resistance against GIT digestion | Concentration, t = 0 min [1]: 99 µg/mL | Concentration, t = 60 min [1]: 107 µg/mL | Concentration, t = 65 min [1]: 106 µg/mL | Concentration, t = 75 min [1]: 102 µg/mL | Concentration, t = 90 min [1]: 68 µg/mL | Concentration, t = 120 min [1]: 79 µg/mL | Concentration, t = 150 min [1]: 63 µg/mL | Concentration, t = 180 min [1]: 24 µg/mL | IC50 (ACE): 20 µM
